Results from publication PMC12802263 (mBio, 2025).

Sequences of proteins named here, by UniProt entry; tags and fusion partners are left off. A change or cut given only in a name is not applied to a line headed by its entry.
UniProt Q6XGD8: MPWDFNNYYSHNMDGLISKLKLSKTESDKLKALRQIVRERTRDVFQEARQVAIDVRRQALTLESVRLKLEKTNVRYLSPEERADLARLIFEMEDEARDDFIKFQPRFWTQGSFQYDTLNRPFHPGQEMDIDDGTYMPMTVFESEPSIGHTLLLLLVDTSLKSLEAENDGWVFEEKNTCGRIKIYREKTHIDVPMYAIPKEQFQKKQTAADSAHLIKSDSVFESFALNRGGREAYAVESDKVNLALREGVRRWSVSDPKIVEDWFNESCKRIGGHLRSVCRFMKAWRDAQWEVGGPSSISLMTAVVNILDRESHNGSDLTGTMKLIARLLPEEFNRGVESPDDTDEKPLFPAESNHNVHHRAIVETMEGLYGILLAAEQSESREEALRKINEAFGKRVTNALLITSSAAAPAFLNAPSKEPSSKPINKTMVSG

How the values were obtained:
DncE [1] = molecular target: T1, DncE (Escherichia coli, UniProt Q6XGD8); assay: HPLC of […]'[…]'-cGAMP and c-di-GMP; details: with ATP or as sole substrate (100 µM); 1 mM Mn2+; 50 mM Tris-HCl, pH 7.5, 37 °C
T1 construct: gene dncV

DncE [2] = molecular target: T1, DncE; details: with GTP or as sole substrate (100 µM); 1 mM Mn2+; 50 mM Tris-HCl, pH 7.5, 37 °C

Compound	HPLC of 3'3'-cGAMP and c-di-GMP (DncE [1])	HPLC of 3'3'-cGAMP and c-di-AMP (DncE [2])
Nc1nc2c(ncn2[C@@H]2O[C@H](COP(=O)(O)OP(=O)(O)OP(=O)(O)O)[C@@H](O)[C@H]2O)c(=O)[nH]1 [GTP]	DncV or DncE generated significantly higher levels of both c-di-AMP and c-di-GMP	–
Nc1ncnc2c1ncn2[C@@H]1O[C@H](COP(=O)(O)OP(=O)(O)OP(=O)(O)O)[C@@H](O)[C@H]1O [ATP]	–	DncV or DncE generated significantly higher levels of both c-di-AMP and c-di-GMP
